Data from patent publication US5525731A, “Camptothecin analogues and methods of preparation thereof” (priority 1994, dated 1996).
Where two headings read alike, the source gives them in different places.

System: B-16 melanoma
Type: in vivo, BD2 F1 mice
Settings: B16 melanoma
Description: Average body weight changes were recorded daily.
Tumor: B16 Melanoma Drug A = Camptothecin
Inoculation: 2 × 10^6 cells. S.C.
Schedule: QD × 5. I.P. started day 4

Measured: DEATHS (D/L)

C=C1C(=O)OCc2c1cc1n(c2=O)Cc2c-1nc1ccc(O)cc1c2CC [Compound 33, 7-Ethyl-10-hydroxy-18-nor-anhydrocamptothecin]
0/2: 10 mg/kg, day 7 | 10 mg/kg, day 14 | 30 mg/kg, day 7 | 30 mg/kg, day 14
